Laboratory results from article PMC8150020, “Studying the suitability of hybrid micelle liquid chromatography for estimating the lipophilicity of some partial dopamine agonists used to attain the reward circuit” (Royal Society Open Science, 2021).

Assay: experimental determination of log Pm/w using HMLC
Assay type: physicochemical

## (RS)-4,5,6,7-tetrahydro-N-6-propyl-2,6-benzothiazolediamine dihydrochloride monohydrate [PRM]
pH 3, 40°C
  log P (experimental log Pm/w) pH 3: 1.985
pH 4, 40°C
  log P (experimental log Pm/w) pH 4: 2.109
pH 5, 40°C
  log P (experimental log Pm/w) pH 5: 2.228
pH 6
  experimental log P: 2.323
pH 6, 40°C
  log P (experimental log Pm/w) pH 6: 2.323
